This test addresses hERα (Homo sapiens, UniProt P03372). Kind of test: CV1 transactivation assay with exogenous hERα. The note with it: 1 μM ICI + 10 nM E2; data not shown. In kind it is cell-based.

Amino acid sequences for entries named in this document (tags omitted).
UniProt P03372, whole entry: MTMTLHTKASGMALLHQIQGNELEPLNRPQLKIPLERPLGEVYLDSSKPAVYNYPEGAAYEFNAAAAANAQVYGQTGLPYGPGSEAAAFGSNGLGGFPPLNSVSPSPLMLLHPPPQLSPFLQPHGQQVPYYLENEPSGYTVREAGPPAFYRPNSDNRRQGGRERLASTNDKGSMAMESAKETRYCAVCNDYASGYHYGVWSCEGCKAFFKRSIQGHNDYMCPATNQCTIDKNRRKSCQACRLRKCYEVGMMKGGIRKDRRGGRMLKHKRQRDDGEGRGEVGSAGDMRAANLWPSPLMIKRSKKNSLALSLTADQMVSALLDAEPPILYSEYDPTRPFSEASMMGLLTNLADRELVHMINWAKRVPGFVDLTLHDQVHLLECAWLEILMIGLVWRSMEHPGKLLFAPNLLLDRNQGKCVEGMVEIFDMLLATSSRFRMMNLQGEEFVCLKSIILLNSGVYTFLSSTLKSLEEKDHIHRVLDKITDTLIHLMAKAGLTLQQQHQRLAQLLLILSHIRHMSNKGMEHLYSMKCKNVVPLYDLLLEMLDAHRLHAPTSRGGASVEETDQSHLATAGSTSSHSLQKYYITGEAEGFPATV

Each structure is given as a SMILES string.

With `C[C@]12CC[C@@H]3c4ccc(O)cc4C[C@@H](CCCCCCCCC[S+]([O-])CCCC(F)(F)C(F)(F)F)[C@H]3[C@@H]1CC[C@@H]2O` (stereo partly shown) [ICI, ICI 182,780, reference compound], the “Effect of ICI on E2-elicited transcriptional activation” value is “ablated”.

These data come from paper PMC2944037 (2010).
